Patent publication US10519162B2, “6,7-dihydropyrazolo[1,5-α]pyrazin-4(5H)-one compounds and their use as negative allosteric modulators of mGluR2 receptors” (Janssen Pharmaceutica NV, priority 2014, dated 2019)

Amino acid sequences for entries named in this document (tags omitted). Residues count along the entry.
UniProt Q14416, 19-872 limits assumed: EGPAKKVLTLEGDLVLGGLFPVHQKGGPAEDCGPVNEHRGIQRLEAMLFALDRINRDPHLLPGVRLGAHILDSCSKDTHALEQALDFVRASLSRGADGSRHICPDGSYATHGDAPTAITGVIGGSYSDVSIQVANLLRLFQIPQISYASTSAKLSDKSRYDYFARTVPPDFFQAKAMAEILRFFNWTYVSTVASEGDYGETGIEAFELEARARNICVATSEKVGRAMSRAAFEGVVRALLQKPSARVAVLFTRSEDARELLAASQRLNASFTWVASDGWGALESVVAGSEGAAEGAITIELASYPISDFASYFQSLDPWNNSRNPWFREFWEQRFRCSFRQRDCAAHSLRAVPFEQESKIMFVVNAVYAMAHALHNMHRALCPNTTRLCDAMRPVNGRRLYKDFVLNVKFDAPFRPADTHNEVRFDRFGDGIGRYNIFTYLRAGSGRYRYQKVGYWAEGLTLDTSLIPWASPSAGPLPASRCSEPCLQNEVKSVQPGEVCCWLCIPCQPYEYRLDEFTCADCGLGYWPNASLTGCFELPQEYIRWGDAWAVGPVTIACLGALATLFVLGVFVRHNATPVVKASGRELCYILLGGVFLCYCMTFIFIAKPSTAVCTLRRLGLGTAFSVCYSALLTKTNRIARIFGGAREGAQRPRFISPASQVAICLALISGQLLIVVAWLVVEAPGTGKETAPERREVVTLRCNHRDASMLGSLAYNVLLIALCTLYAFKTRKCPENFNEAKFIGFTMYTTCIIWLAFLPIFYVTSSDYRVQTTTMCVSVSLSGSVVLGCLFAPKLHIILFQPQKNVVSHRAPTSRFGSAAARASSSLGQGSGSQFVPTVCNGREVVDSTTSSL

What was measured:
[1] = biological target: human mGlu2 receptor (Homo sapiens, UniProt Q14416); test: [35S]GTPγS binding assay (mGluR2 negative allosteric modulation, glutamate ~EC80 60 μM); conditions: for GTPγS-hmGluR2 anGT pIC50: membranes from CHO cells transfected with human mGlu2 receptor, glutamate ~EC80 (60 μM), pIC50 = −log IC50 (M); for GTPγS-hmGluR2 anGT Emax: maximal % inhibition relative to the control glutamate response (EC80 glutamate)
Text: The compounds provided in the present invention are negative allosteric modulators of mGluR2. These compounds appear to inhibit glutamate responses by binding to an allosteric site other than the glutamate binding site. The response of mGluR2 to a concentration of glutamate is decreased when compounds of Formula (I) are present. Compounds of Formula (I) are expected to have their effect substantially at mGluR2 by virtue of their ability to reduce the function of the receptor. The effects of negative allosteric modulators tested at mGluR2 using the [^35S]GTPγS binding assay method described below and which is suitable for the identification of such compounds, and more particularly the compounds according to Formula (I), are shown in Table 7.
1) [^35S]GTPγS Binding Assay
The [^35S]GTPγS binding assay is a functional membrane-based assay used to study G-protein coupled receptor (GPCR) function whereby incorporation of a non-hydrolysable form of GTP, [^35S]GTPγS (guanosine 5′-triphosphate, labelled with gamma-emitting ^35S), is measured. The G-protein a subunit catalyzes the exchange of guanosine 5′-diphosphate (GDP) by guanosine triphosphate (GTP) and on activation of the GPCR by an agonist, [^35S]GTPγS, becomes incorporated and cannot be cleaved to continue the exchange cycle (Harper (1998) Current Protocols in Pharmacology 2.6.1-10, John Wiley & Sons, Inc.). […] Here we describe the use of the [^35S]GTPγS binding assay using membranes from cells transfected with the human mGlu2 receptor and adapted from Schaffhauser et al. (Molecular Pharmacology, 2003, […]) for the detection of the negative allosteric modulation (NAM) properties of the compounds of this invention.
CHO-cells were cultured to pre-confluence and stimulated with 5 mM butyrate for 24 h. Cells were then collected by scraping in PBS and cell suspension was centrifuged (10 min at 4000 RPM in benchtop centrifuge). Supernatant was discarded and pellet gently resuspended in 50 mM Tris-HCl, pH 7.4 by mixing with an Ultra Turrax homogenizer. The suspension was centrifuged at 12,400 RPM (Sorvall F14S-6x250Y) for 10 minutes and the supernatant discarded. The pellet was homogenized in 5 mM Tris-HCl, pH 7.4 using an Ultra Turrax homogenizer and centrifuged again (13,000 RPM, 20 min, 4° C.). The final pellet was resuspended in 50 mM Tris-HCl, pH 7.4 and stored at −80° C. in appropriate aliquots before use. Protein concentration was determined by the Bradford method (Bio-Rad, USA) with bovine serum albumin as standard.
[^35S]GTPγS Binding Assay
Measurement of mGluR2 negative allosteric modulatory activity of test compounds was performed as follows. Test compounds and glutamate were diluted in assay buffer containing 10 mM HEPES acid, 10 mM HEPES salt, pH 7.4, 100 mM NaCl, 3 mM MgCl2 and 10 mM GDP. Human mGlu2 receptor-containing membranes were thawed on ice and diluted in assay buffer supplemented with 18 μg/ml saponin. Membranes were pre-incubated with compound together with a predefined (˜EC80) concentration of glutamate (60 μM) for 30 min at 30° C. After addition of [^35S]GTPγS (f.c. 0.1 nM), assay mixtures were shaken briefly and further incubated to allow [^35S]GTPγS incorporation on activation (30 minutes, 30° C.). Final assay mixtures contained 7 μg of membrane protein in 10 mM HEPES acid, 10 mM HEPES salt, pH 7.4, 100 mM NaCl, 3 mM MgCl2, 10 μM GDP and 10 μg/ml saponin. Total reaction volume was 200 μl. Reactions were terminated by rapid filtration through Unifilter-96 GF/B plates (Perkin Elmer, Massachusetts, USA) using a 96-well filtermate universal harvester. Filters were washed 6 times with ice-cold 10 mM NaH2PO4/10 mM Na2HPO4, pH 7.4. Filters were then air-dried, and 30 μl of liquid scintillation cocktail (Microscint-O) was added to each well. Membrane-bound radioactivity was counted in a Topcount.
The concentration-response curves of representative compounds of the present invention were generated using the Lexis software interface (developed at J&J). […]

[2] = tested on: rats; test: Reversal of the effect of the mGluR2 PAM JNJ-42153605-induced inhibition of scopolamine-induced hyperlocomotion (SCOP JNJ-42153605); conditions: PO (oral route), reversal criterion total distance >1500 cm
Procedure: 2) Reversal of the Effect of the mGluR2 PAM JNJ-42153605-Induced Inhibition of Scopolamine-Induced Hyperlocomotion Apparatus
Motor activity was measured in microprocessor-based motor activity arenas (closed gray PVC cylinders with a height of 39 cm and a diameter of 31 cm). Each arena was placed on an infrared LED (8×8 LEDs) lit box (white PVC squared box; 40×40 cm^2; height 12.5 cm. An infrared-sensitive tube camera and a white light source were mounted to the ceiling above the observation chamber to track the animal. The total distance traveled (cm) was recorded and analyzed using the Noldus Ethovision XT Video Tracking System (Version 7.0.418; Noldus, Wageningen, The Netherlands). The intensity of the light within the activity cages (measured in the centre at the level of the floor) ranged between 4 and 8 LUX.
The rats were pretreated with test compound or vehicle at 60 min before the start of the activity recordings and placed into individual cages. The rats were challenged with JNJ-42153605 (3-(cyclopropylmethyl)-7-(4-phenylpiperidin-1-yl)-8-(trifluoromethyl)[1,2,4]triazolo[4,3-a]pyridine; WO2010/130424; Cid et al. J. Med. Chem. 2012, 55, 8770-8789) (20 mg/kg, i.v.) 30 min before the start of the activity recording combined with scopolamine (0.16 mg/kg, i.v.) just before the start of the activity measurements. Immediately after the injection of scopolamine, the rats were placed into the activity monitors and total distance travelled over the first 30 min was measured.
Solvent-Pretreated Control Rats.
Animals receiving the combination of JNJ-42153605 and scopolamine (n=433) almost always travelled a distance of less than 1500 cm (<1500 cm) (only 2.5% of the control rats travelled a distance of more than 1500 cm (>1500 cm)). On the other hand, animals challenged with scopolamine alone (n=215) always travelled a total distance of more than 1500 cm (>1500 cm) and almost always (in 95.8% of the rats) a distance of more than 4400 cm (>4400 cm). […] For reversal of the inhibitory effect of JNJ-42153605 on the scopolamine-induced hyperlocomotion, the following all-or-none criteria were adopted: (1) reversal: total distance >1500 cm.

[3] = tested on: Male Wiga Wistar rats; test: Reversal of LY-404039-induced decrease of palpebral opening in apomorphine-challenged rats (APO LY-404039); type: in vivo, rat; conditions: PO (oral route), tested form: HCl;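 note: Reversal defined as cumulative palpebral opening score above 26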
Procedure: B) In Vivo Pharmacology 1) Reversal of LY-404039-Induced Decrease of Palpebral Opening in Apomorphine-Challenged Rats.
Male Wiga Wistar rats (Crl:WI; Charles River Germany; 220±40 g) were housed under standard laboratory conditions (21±2° C.; 50-65% relative humidity; light-dark cycle set at 12 h; lights on at 6.00 h) and fasted overnight prior to the start of the experiments (tap water remained available ad libitum). During the test period, they were housed in individual cages. Palpebral opening was scored every 5 min over the first hour after injection of apomorphine (1.0 mg/kg, i.v.) in animals either pretreated or not pretreated with LY-404039 (2.5 mg/kg, s.c.) at 1 h prior to the apomorphine injection. The animals were also pretreated with test compound or solvent at a predefined interval before apomorphine challenge. The score system was: (5) exophthalmos, (4) wide open, (3) open for three-quarters, (2) half open, (1) open for one-quarter, (0) closed. The scores for palpebral opening were cumulated over the 60-min observation period. A cumulative palpebral opening score >26 was selected for drug-induced reversal of the LY-404039-induced decrease of palpebral opening (occurrence in 3.2% of control animals pretreated with LY-404039 (n=154) versus in 99.5% of control rats not pretreated with LY-404039 (n=6335)). […]

| GTPγS-hmGluR2 anGT pIC50 [1] | GTPγS-hmGluR2 anGT Emax [1] [%] | Compound | ED50 SCOP JNJ-42153605 [2] [mg/kg] | further results |
| --- | --- | --- | --- | --- |
| 7.52 | – | COCC1CN(c2ccc(C(F)(F)F)cc2)C(=O)c2c(NC(=O)c3ccccc3F)cnn21 (stereo not drawn) | – | – |
| 7.57 | 110 | COCC1CN(c2ccc(C(F)(F)F)cc2)C(=O)c2c(NC(=O)c3ccc(N)nc3)cnn21 (stereo not drawn) | – | – |
| 7.48 | – | C[C@H]1CN(c2ccc(C(F)(F)F)cc2)C(=O)c2c(NC(=O)c3ccc[n+]([O-])c3)cnn21 | >0.63 | – |
| 7.81 | – | C[C@H]1CN(c2ccc(C(F)(F)F)cc2)C(=O)c2c(NC(=O)c3cnc(N)nc3)cnn21 | >2.5 | – |

More lines, now with the values behind:

| Compound | GTPγS-hmGluR2 anGT pIC50 [1] | GTPγS-hmGluR2 anGT Emax [1] [%] | ED50 SCOP JNJ-42153605 [2] [mg/kg] | further results |
| --- | --- | --- | --- | --- |
| COCC1CN(c2ccc(C(F)(F)F)c(Cl)c2)C(=O)c2c(NC(=O)c3ccc(N)nc3)cnn21 (stereo not drawn) | 8.38 | 111 | – | – |
| C[C@H]1CN(c2ccc(C(F)(F)F)c(Cl)c2)C(=O)c2c(NC(=O)c3ccccn3)cnn21 | 8.76 | 110 | >0.63 | – |
| Cc1nccc(C(=O)Nc2cnn3c2C(=O)N(c2ccc(C(F)(F)F)cc2)C[C@@H]3C)c1C | – | – | – | GTPγS-hmGluR2 anGT pIC50 ([1]; tested form: HCl): 7.03 |
| C[C@H]1CN(c2ccc(Cl)c(Cl)c2)C(=O)c2c(NC(=O)c3cccnc3)cnn21 | – | – | – | ED50 APO LY-404039 [3]: >0.63 mg/kg; ED50 SCOP JNJ-42153605 ([2]; tested form: HCl): >0.63 mg/kg |
| C[C@H]1CN(c2ccc(C(F)(F)F)c(Cl)c2)C(=O)c2c(NC(=O)c3cncc(F)c3)cnn21 | 8.63 | – | >0.63 | – |
| Cc1cnc(N)c(C(=O)Nc2cnn3c2C(=O)N(c2ccc(C(F)(F)F)c(Cl)c2)C[C@@H]3C)c1 | – | – | – | GTPγS-hmGluR2 anGT pIC50 ([1]; tested form: TFA): 9.15 |
